Experimental data published in ChEMBL document CHEMBL1157914, “5,5'-substituted indirubin-3'-oxime derivatives as potent cyclin-dependent kinase inhibitors with anticancer activity” (J Med Chem, 2010).

Molecular target: T1, Aurora kinase A (Homo sapiens, UniProt O14965)
T1 sequence (O14965 whole entry): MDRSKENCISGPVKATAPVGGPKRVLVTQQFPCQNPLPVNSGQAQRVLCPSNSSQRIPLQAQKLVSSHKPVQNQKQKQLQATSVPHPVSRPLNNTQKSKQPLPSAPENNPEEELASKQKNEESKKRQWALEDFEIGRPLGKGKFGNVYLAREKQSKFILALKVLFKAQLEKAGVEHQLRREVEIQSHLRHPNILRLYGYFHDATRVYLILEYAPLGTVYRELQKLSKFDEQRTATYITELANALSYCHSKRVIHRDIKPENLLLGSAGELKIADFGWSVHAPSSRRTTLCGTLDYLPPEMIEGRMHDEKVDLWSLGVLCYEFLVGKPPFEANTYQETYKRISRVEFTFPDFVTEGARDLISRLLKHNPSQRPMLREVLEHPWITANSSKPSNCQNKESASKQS
Assay: Inhibition of recombinant auroraA preincubated for 15 mins by HTRF assay

## O=C1Nc2ccc([N+](=O)[O-])cc2/C1=C1/Nc2ccc(O)cc2/C1=N/O
  IC50: 1000 nM
